Target: human PTH1 receptor (Homo sapiens, UniProt Q03431)
Assay: In vitro cAMP signal activity in HKRK-B7 cells (LLC-PK1 cells overexpressing the human PTH1 receptor)
Assay type: cell-based
Settings: compound at 1×10^−3 M, cAMP produced as percentage of that produced by hPTH(1-34) at 100 nM

By UniProt entry, the sequences of proteins in these tests, tags left out. Residues count along the entry.
UniProt Q03431, 27-593 limits assumed: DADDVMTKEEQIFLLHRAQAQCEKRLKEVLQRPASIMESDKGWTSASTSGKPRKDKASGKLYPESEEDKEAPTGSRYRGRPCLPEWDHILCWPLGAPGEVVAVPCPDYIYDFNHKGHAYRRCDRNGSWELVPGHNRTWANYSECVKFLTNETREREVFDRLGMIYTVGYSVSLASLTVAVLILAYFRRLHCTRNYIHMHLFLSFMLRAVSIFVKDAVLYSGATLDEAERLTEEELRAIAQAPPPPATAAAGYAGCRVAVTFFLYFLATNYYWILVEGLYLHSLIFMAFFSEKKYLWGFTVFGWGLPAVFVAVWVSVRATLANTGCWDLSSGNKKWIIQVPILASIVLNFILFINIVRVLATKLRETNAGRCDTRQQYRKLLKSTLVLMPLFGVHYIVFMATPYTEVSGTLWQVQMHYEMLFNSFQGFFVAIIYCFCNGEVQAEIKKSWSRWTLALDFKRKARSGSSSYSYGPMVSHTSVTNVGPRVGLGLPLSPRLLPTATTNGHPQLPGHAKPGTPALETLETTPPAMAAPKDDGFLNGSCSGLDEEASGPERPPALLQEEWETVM

Question: For `CC(=O)N(c1ccc(/C=C/S(=O)(=O)N2CCC3(CC2)N=C(c2cccc(OC(F)(F)F)c2)NC3=O)c(C)c1)C1CCNCC1`, which “cAMP production activity (%)” value is on record?
Answer: 24%
